# scFv variants of Ab-14 (light chain) against a SARS-CoV-2 spike peptide

Data: MIT Lincoln Laboratory AlphaSeq set, Engelhart et al. 2022, doi:10.1038/s41597-022-01779-4, as distributed in FLAb.

The target is the same throughout: PDVDLGDISGINAS, from the HR2 region of SARS-CoV-2 spike.

The variants keep the heavy chain, the linker and the frameworks of Ab-14 (scFv order VH, the linker GGGGSGGGGSGGGGS, VL).
VH: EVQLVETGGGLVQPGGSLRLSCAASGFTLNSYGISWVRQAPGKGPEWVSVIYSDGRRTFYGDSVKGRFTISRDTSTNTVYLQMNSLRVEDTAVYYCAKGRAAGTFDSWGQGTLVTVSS
VL: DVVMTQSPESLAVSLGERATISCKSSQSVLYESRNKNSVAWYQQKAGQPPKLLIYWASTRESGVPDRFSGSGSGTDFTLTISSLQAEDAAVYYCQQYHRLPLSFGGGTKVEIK

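The parent was found by panning a naive human phage display library on the peptide. The library (AAYL50) carries one to three amino acid substitutions per variant, with no insertions or deletions. Affinity was read by AlphaSeq, a pooled yeast mating assay with surface-displayed partners. After mating in shaken culture at 30 °C for 16 h, diploids were selected and their barcode pairs sequenced. Read counts were normalised to the haploid input and turned into Kd by a linear fit to BCL2-family pairs of known affinity, for each replicate. The assay was run in three technical replicates.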

Each variant is given by its three light chain CDRs, as the data file delimits them; those of the parent are KSSQSVLYESRNKNSVA, WASTRES, QQYHRLPLS.
Scale: log10 of Kd in nM, estimated from mating counts; low values are strong binders.
The mean shown is taken over the replicates in which the pair was detected.
A pair that was not seen in that replicate is written "n.d."; this usually means weak binding, but a binder can also be missed.
Three control strains display no target. For library AAYL50, 18% of the pairings with them gave a signal, with a median of 4.19 and one signal in twenty below 2.99, so weak values seen in few replicates may be background. For each scFv, signals with the empty controls are counted beside the result, with their mean in brackets.

CDR-L1 | CDR-L2 | CDR-L3 | replicates, log10 nM | mean log10 Kd (nM) | control signals
KLSQSVLYESRNKNSIA | WASTRES | QQYHCLPLS | 0.01 / 0.45 / 0.15 | 0.20 | 3/9 (4.36)
KSSQSVRYESRYKNTVA | WASTRES | QQYHRLPLS | 5.02 / 3.91 / 4.37 | 4.44 | 8/9 (4.38)
KSSQSDLYESRNKNSLA | WATTRES | QQYHRLPLS | 1.18 / 1.88 / 1.56 | 1.54 | 0/9
CSSQGVLYESRNKNSVA | WISTRES | QQYHRLPLS | n.d. / n.d. / n.d. | n.d. | 0/9
TSSQSVLYESRNCNSVA | WASTREE | QQYHRLPLS | 1.41 / 1.38 / 1.17 | 1.32 | 2/9 (4.34)
KSSQSVLYESGNKNSVA | DASTRES | QQYHRLPLI | 0.45 / 0.60 / 0.50 | 0.51 | 3/9 (4.66)
KSKQSVLYESRNKNRVA | QASTRES | QQYHRLPLS | 0.89 / 1.02 / 1.02 | 0.98 | 2/9 (2.88)
SSSPSVLYESRNKNSDA | WASTRES | QQYHRLPLS | n.d. / n.d. / 3.75 | 3.75 | 0/9
KSSQSVLYESREKNSVA | WASTRES | QQYHRLPCS | n.d. / n.d. / n.d. | n.d. | 3/9 (4.18)
KSSQSQLYESRNKDSVA | WASVRES | QQYHRLPLS | 0.33 / 0.65 / 0.45 | 0.48 | 1/9 (4.15)
KSSQSVLYESSNKNSVA | WASTRES | QQYHILPLS | 4.57 / n.d. / n.d. | 4.57 | 2/9 (3.93)
KSSQSVLYESRNKNSVA | WASTRQS | MQYHMLPLS | 5.56 / 4.18 / 5.55 | 5.10 | 3/9 (5.11)
KSSQSVLYESRNGNSVA | WASTRIS | QQYHRLPHS | 5.39 / n.d. / n.d. | 5.39 | 0/9
KSSQSHCYESRNDNSVA | WASTRES | QQYHRLPLS | 2.18 / 1.91 / 2.96 | 2.35 | 2/9 (3.90)
KSSQKVLYESKNKNSVA | WASTRES | QQYHRLPLS | 2.14 / 2.15 / 2.30 | 2.19 | 4/9 (4.54)
KSSDSVLYESRNKNSVA | WASTKES | QQYHRLPTS | 2.23 / 2.29 / 2.82 | 2.45 | 1/9 (3.89)
KSSQSVLYESRNKNSVA | WASASES | QKYHRLPLS | n.d. / n.d. / 4.95 | 4.95 | 1/9 (4.20)
KSSVSVLYESRNKNSGA | WASDRES | QQYHRLPLS | n.d. / n.d. / 6.36 | 6.36 | 2/9 (4.67)
KSSQSALYELRNKNSVA | WASTRES | QQYHRSPLS | n.d. / n.d. / n.d. | n.d. | 2/9 (4.68)
KSSQSYLYESRNKNSCA | WASTRES | QQYHRLPES | 2.93 / n.d. / n.d. | 2.93 | 0/9
KSSQSVLTESRNENSVA | WASTRES | LQYHRLPLS | 0.11 / 0.38 / 0.09 | 0.19 | 4/9 (4.64)
KSSQSVLYESRNKNSVY | WASTRES | QQYHRLPQR | n.d. / 3.98 / n.d. | 3.98 | 2/9 (3.64)
KSSQSVLYWSRNKNSVA | WASTRES | QQYHREPLS | 2.00 / 1.72 / 1.95 | 1.89 | 0/9
KSSQSVLYEDRNKNSVA | WASTRES | QQYHELPLS | 1.99 / 2.01 / 2.61 | 2.20 | 2/9 (3.70)
KLSQSVKYEFRNKNSVA | WASTRES | QQYHRLPLS | 0.39 / 0.66 / 0.46 | 0.50 | 2/9 (4.58)
KSSQSVLYESRNKNSVA | GASTRES | QQYERLPPS | 3.37 / 4.23 / n.d. | 3.80 | 4/9 (3.60)
KSSQSVLYQSRNKNLVA | WASTRES | QQYHRLLLS | 4.05 / n.d. / n.d. | 4.05 | 5/9 (4.26)
KHSQSVCYESRNKNSVA | WASTRES | QLYHRLPLS | n.d. / n.d. / 4.79 | 4.79 | 2/9 (4.55)
KSVASVLYESRNKNSVA | WAITRES | QQYHRLPLS | 3.72 / 3.49 / n.d. | 3.60 | 0/9
KSSQSVLYESRNNNSVA | WASERES | QQYHRLDLS | 4.68 / 4.63 / n.d. | 4.65 | 3/9 (4.61)
KSSQSWLYESDYKNSVA | WASTRES | QQYHRLPLS | 0.54 / 0.75 / 0.67 | 0.65 | 4/9 (3.95)
KSCQSVLYESRNKDSVA | WASTRTS | QQYHRLPLS | n.d. / n.d. / n.d. | n.d. | 0/9
KSSQSALPESRNKNSVA | WASTRCS | QQYHRLPLS | 0.56 / 0.79 / 0.72 | 0.69 | 2/9 (3.73)
KSSVSILYESRNKNSVA | WASTRES | QQYHFLPLS | 3.78 / 3.05 / 3.77 | 3.54 | 1/9 (4.59)
KSSPSVLYESRNKNSVA | WISTRKS | QQYHRLPLS | 3.94 / 3.81 / 4.76 | 4.17 | 1/9 (3.82)
KSIQSVPYESRNKNSVA | TASTRES | QQYHRLPLS | 0.74 / 1.01 / 1.12 | 0.96 | 0/9
CSSQSVRYESRNKNSVA | WAMTRES | QQYHRLPLS | n.d. / n.d. / 2.83 | 2.83 | 0/9
KSSQSVMYESRNKNSVP | WASTRES | QQCHRLPLS | n.d. / n.d. / 5.84 | 5.84 | 0/9
KSSQSALYESRNKNSVV | WASTREG | QQYHRLPLS | 3.88 / 3.97 / n.d. | 3.92 | 4/9 (4.36)
KSSQDVLYESRNKNSVA | WCSTRES | QQYHRLPES | -0.26 / 0.33 / -0.18 | -0.04 | 0/9
KSSQSVLYESGNKNSAA | WASTRES | QQYHRNPLS | n.d. / n.d. / 4.13 | 4.13 | 0/9
KESQSVLYESRNKDSVA | LASTRES | QQYHRLPLS | 1.48 / 1.49 / 1.84 | 1.60 | 2/9 (3.85)
KSSQSVLYESRNKNSVA | DASTPES | QQYHRLPIS | 0.36 / 0.73 / 0.58 | 0.55 | 1/9 (4.01)
KSSQNVLWESFNKNSVA | WASTRES | QQYHRLPLS | 0.89 / 1.52 / 1.13 | 1.18 | 0/9
KSSTSVLYMSRNKNSVA | WASTRES | QQYHRLPLS | 2.11 / 2.26 / 1.66 | 2.01 | 1/9 (3.29)
KSSQSVLYKSRNKNSVA | RASVRES | QQYHRLPLS | n.d. / 4.09 / n.d. | 4.09 | 1/9 (3.88)
KASQSVLYESRNKNSVA | WASTRES | QQYHRLVLS | 3.01 / n.d. / n.d. | 3.01 | 0/9
KSSQSVLYESRNKNSVA | WIIARES | QQYHRLPLS | n.d. / n.d. / n.d. | n.d. | 3/9 (2.86)
KSSQSVLYEMRNKNSVA | WASTRES | QDNHRLPLS | n.d. / 4.39 / 3.69 | 4.04 | 3/9 (4.28)

The last 3 entries again:

{"CDR-L1": "KASQSVLYESRNKNSVA", "CDR-L2": "WASTRES", "CDR-L3": "QQYHRLVLS", "replicates, log10 nM": "3.01 / n.d. / n.d.", "mean log10 Kd (nM)": "3.01", "control signals": "0/9"}
{"CDR-L1": "KSSQSVLYESRNKNSVA", "CDR-L2": "WIIARES", "CDR-L3": "QQYHRLPLS", "replicates, log10 nM": "n.d. / n.d. / n.d.", "mean log10 Kd (nM)": "n.d.", "control signals": "3/9 (2.86)"}
{"CDR-L1": "KSSQSVLYEMRNKNSVA", "CDR-L2": "WASTRES", "CDR-L3": "QDNHRLPLS", "replicates, log10 nM": "n.d. / 4.39 / 3.69", "mean log10 Kd (nM)": "4.04", "control signals": "3/9 (4.28)"}